From PMC11463559 (bioRxiv, 2024)

Key:
[1] = molecular target: AT1R-LgBiT (UniProt P30556); experiment: split reporter
[2] = molecular target: AT1R-LgBiT (UniProt P30556); experiment: split reporter; remark: listed apart in the source

- logEC50 of the agonist AngII for recruitment [1]: -9.13 log M
- logEC50 of the agonist TRV023 for recruitment [2]: -7.66 log M
B1: SmBiT-β-arrestin 1 (natural protein, rat, UniProt P29066 1-418, looked up)
chain: MGDKGTRVFKKASPNGKLTVYLGKRDFVDHIDLVDPVDGVVLVDPEYLKERRVYVTLTCAFRYGREDLDVLGLTFRKDLFVANVQSFPPAPEDKKPLTRLQERLIKKLGEHAYPFTFEIPPNLPCSVTLQPGPEDTGKACGVDYEVKAFCAENLEEKIHKRNSVRLVIRKVQYAPERPGPQPTAETTRQFLMSDKPLHLEASLDKEIYYHGEPISVNVHVTNNTNKTVKKIKISVRQYADICLFNTAQYKCPVAMEEADDTVAPSSTFCKVYTLTPFLANNREKRGLALDGKLKHEDTNLASSTLLREGANREILGIIVSYKVKVKLVVSRGGLLGDLASSDVAVELPFTLMHPKPKEEPPHREVPESETPVDTNLIELDTNDDDIVFEDFARQRLKGMKDDKDEEDDGTGSPHLNNR
